This is an account of results in PMC4387075 (Neuropharmacology, 2015).

The chains behind the UniProt entries cited, without tags or fusion partners. Residues count along the entry.
UniProt P23385, 19-1199: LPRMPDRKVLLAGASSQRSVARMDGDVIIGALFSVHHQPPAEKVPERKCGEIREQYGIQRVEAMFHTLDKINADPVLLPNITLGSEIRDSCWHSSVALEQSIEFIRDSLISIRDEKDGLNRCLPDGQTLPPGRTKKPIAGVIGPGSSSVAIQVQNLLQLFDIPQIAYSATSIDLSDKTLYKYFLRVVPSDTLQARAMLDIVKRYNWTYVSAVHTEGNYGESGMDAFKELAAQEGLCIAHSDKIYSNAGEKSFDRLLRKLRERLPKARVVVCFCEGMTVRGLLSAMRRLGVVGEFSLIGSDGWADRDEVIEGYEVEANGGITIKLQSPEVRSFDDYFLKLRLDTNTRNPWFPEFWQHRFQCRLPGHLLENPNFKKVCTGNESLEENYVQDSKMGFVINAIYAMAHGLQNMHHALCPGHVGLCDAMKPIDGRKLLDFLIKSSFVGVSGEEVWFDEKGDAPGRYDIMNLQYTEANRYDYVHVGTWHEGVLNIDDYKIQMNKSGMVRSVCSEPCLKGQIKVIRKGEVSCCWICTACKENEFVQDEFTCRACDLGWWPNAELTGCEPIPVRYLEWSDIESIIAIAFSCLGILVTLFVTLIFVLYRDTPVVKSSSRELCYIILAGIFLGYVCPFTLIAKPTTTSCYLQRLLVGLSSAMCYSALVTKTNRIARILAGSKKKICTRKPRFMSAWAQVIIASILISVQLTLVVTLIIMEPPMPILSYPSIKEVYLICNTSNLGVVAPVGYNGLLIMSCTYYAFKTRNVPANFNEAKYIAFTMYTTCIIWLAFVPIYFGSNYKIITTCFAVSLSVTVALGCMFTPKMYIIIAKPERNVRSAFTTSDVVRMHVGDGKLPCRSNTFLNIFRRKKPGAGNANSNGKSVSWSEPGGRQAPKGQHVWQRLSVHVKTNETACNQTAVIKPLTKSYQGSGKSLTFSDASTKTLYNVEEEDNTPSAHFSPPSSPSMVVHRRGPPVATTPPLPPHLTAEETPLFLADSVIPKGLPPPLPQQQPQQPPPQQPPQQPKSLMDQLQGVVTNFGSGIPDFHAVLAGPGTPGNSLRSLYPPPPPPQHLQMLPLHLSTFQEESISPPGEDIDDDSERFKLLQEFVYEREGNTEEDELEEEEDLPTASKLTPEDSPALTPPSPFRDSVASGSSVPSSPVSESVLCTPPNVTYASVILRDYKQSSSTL

The assay has as its target mGlu1 receptors (Rattus norvegicus, UniProt P23385). Briefly: PI hydrolysis. It counts as cell-based. As to conditions: agonists 100 μM; JNJ16259685 300 μM, CPCCOEt 200 μM, MPEP 10 μM.

As for “7-(Hydroxyimino)cyclopropa[b]chromen-1a-carboxylate ethyl ester [CPCCOEt]”, the “effect of antagonist on PI hydrolysis stimulated by quisqualate, DHPG and ACPD” value was “significantly decreased”.
